The source of these data is patent US20040082554A1, “Neuroactive steroid derivatives and method of use” (priority 2003, published 2004).

Data set [1] has as its system mice. The data set is described as follows: Tail flick test (latency to remove the tail from the light source). The format is in vivo. As to conditions: 3α5βHS 10 and 15 mg/kg i.p.; cut-off time 10 seconds. As for the experimental part:
FIG. 9. […] Following the injection the mice were tested for every 10 min for 120 min. The latency to remove the tail from the light source was used as a measure of analgesia. […] The values are mean+SEM for 10-15 mice for each group. Data were analyzed using a one-way ANOVA followed by Fisher's LSD.* Denotes significance compared to control.
FIG. 10. […] Mice were injected with PACME (5, 10 or 15 mg/kg). Following the injection the mice were tested for every 10 min for 120 min. The latency to remove the tail from the light source was used as a measure of analgesia. […] Data were analyzed using a one-way ANOVA followed by Fisher's LSD. The values are mean±SEM for 10-15 mice for each group.* Denotes significance compared to control.
The data were analyzed using a one-way ANOVA followed by Fisher's LSD.
In general terms: Hot-plate and tail-flick tests time the reaction to a heat stimulus.

Data set [2] can be described thus: Levels of pregnanolones in the brain following 3α5βHS injection. The conditions noted are these: following 3α5βHS 10 mg/kg, 20 min post injection.
A short description of data set [3]: Determination of pregnanolone hemisuccinate tissue levels in whole brain after i.p. injection (HPLC ESI-MS). As to conditions: rat, 10 mg/kg i.p.; for 3α5βHS level in brain tissue: whole brain.

As to pregnanolone hemisuccinate [3α5βHS], the “lengthening of tail flick latency relative to cut-off time” value in data set [1] is “near maximal lengthening of the latency time”. Moreover, the “levels of pregnanolones present in the brain” value in data set [2] turned out to be 10.9±2.8 pmol/g tissue. In data set [3], the “time until 3α5βHS is detected in the brain” value was at most 10 min. Besides, the “3α5βHS level in brain tissue” value in data set [3] (10 min post injection) is reported as 3.5 nmol/g; in data set [3] (60 min post injection), 0.5 nmol/g. Besides, in data set [3] (post-injection), the “time of peak 3α5βHS level in brain” value stood at 10 min.
